From publication PMC7006680, “Sulfocoumarins as dual inhibitors of human carbonic anhydrase isoforms IX/XII and of human thioredoxin reductase” (Journal of Enzyme Inhibition and Medicinal Chemistry, 2020)

Biological target: T1, hCA IX (Homo sapiens, UniProt Q16790)
T1 construct: made in house
Test: Stopped-flow CO2 hydration CA inhibition assay, hCA IX
Format: biochemical
Experimental: The CO2 concentrations ranged from 1.7 to 17 mM for the determination of the kinetic parameters and inhibition constants. […] The uncatalysed rates were determined in the same manner and subtracted from the total observed rates. […] Inhibitor and enzyme solutions were pre-incubated together for 15 min at room temperature prior to assay, in order to allow for the formation of the E–I complex.

## 1-(2,2-Dioxido-1,2-benzoxathiin-6-yl)-4-(4-fluorophenyl)-1H-1,2,3-triazole [Compound 1b]
  Ki: 8.3 nM

## 1-(2,2-Dioxido-1,2-benzoxathiin-6-yl)-5-(4-fluorophenyl)-1H-1,2,3-triazole [Compound 1d]
  Ki: 6.9 nM
